## Measured affinities in a library of Ab-14 heavy chain variants

Target peptide (SARS-CoV-2 spike, HR2 region): PDVDLGDISGINAS

Each scFv is VH, the linker GGGGSGGGGSGGGGS, VL, as in the parent Ab-14, and differs from it in the CDRs of the heavy chain only.
VH: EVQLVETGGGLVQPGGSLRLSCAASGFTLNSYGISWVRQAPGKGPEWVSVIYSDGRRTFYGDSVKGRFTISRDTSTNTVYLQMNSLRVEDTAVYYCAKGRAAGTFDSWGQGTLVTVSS
VL: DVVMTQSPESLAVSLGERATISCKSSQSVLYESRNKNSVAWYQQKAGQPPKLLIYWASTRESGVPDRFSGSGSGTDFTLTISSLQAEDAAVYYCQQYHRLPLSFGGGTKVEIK

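This is the validation round: designs drawn from the data on random variants, tested in the same kind of assay. Their group label is 14H_GP_Gibbs (GP: Gaussian process model; Gibbs: Gibbs sampling; a sequence that several methods proposed may carry one label only). The assay is AlphaSeq: two haploid yeast populations carry antibody and antigen on their surface. The frequency of each diploid, read from paired DNA barcodes, reflects how well the two displayed proteins bind. Each replicate has its own calibration line, from reference interactions of the BCL2 family. There are six technical replicates.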

Positions count from residue 1 of the parent VH; T28D puts D in place of T.
The read-out is the apparent dissociation constant on a log10 scale (nM): the lower, the stronger.
A pair that was not seen in that replicate is written "n.d."; this usually means weak binding, but a binder can also be missed.
Values of this round are not directly comparable with the first-round values of the same sequences.

| changes | replicates, log10 nM | signal with controls |
|---|---|---|
| T28D R100Q A101L | 0.11 -0.06 0.28 -0.10 -0.11 -0.07 | 1/18 (1.86) |
| T28S S31E F59M G61M A101T | 0.28 -0.18 -0.37 -0.54 -0.06 -0.07 | 1/18 (2.05) |
| T28S G61A R100N A101T S107T | -0.64 -0.80 -0.74 -0.99 -0.84 -0.72 | 0/18 |
| T28S S31E D62W S63N A101T | n.d. n.d. 0.59 0.14 2.24 1.41 | 0/18 |
| N30E S63R R100Q S107T | n.d. n.d. 1.31 2.19 1.85 1.31 | 0/18 |
| T28D G61L R100E | 0.46 -0.56 -0.31 0.02 1.76 -0.06 | 0/18 |
| R56W G61S R100W A101V | 1.83 1.47 1.22 2.28 0.81 1.26 | 0/18 |
| T28Q S31E R100Q S107N | 2.21 1.75 1.04 0.74 1.37 0.71 | 0/18 |
| T28Q R100E S107D | n.d. n.d. n.d. n.d. n.d. n.d. | 0/18 |
| T28E S31D S63A R100K A101T | 0.52 0.59 0.75 0.79 0.55 0.58 | 0/18 |
| T28S S31E F59M S107T | 1.05 0.76 -0.42 0.29 0.65 0.78 | 1/18 (1.34) |
| G26K T28S S31D G61A A101T | 0.04 -0.33 -0.14 -0.18 -0.08 0.07 | 0/18 |
| N30E G61D S63D R100K | n.d. 1.87 n.d. 2.38 n.d. 1.77 | 0/18 |
| G26Y T28D G61K A101T | n.d. n.d. 0.44 1.78 n.d. n.d. | 0/18 |
| T28Q G61A S63Q R100N A101E | 1.85 1.04 1.29 1.02 0.97 0.31 | 0/18 |
| T28E G61I S63D A101Q | 0.61 0.55 0.38 1.45 0.26 1.15 | 0/18 |
| T28D G61T S63R A101T | 1.09 0.66 0.60 1.39 -0.12 0.34 | 1/18 (1.43) |
| G26K T28Q G61A A101L S107T | -0.64 -0.19 -0.51 -0.48 0.29 -0.18 | 0/18 |
| T28G S53A R100N S107T | -0.46 0.16 -0.59 -0.11 -0.13 -0.31 | 0/18 |
| T28D R100D S107N | n.d. n.d. n.d. n.d. n.d. n.d. | 2/18 (1.71) |
| T28E R100V A101T S107K | 1.75 1.54 0.68 0.49 0.63 0.83 | 0/18 |
| T28D S63K R100Q A101E | 0.32 0.85 0.14 0.13 0.43 0.17 | 0/18 |
| T28E G61S R100Q S107D | 0.98 0.50 1.09 0.86 0.64 1.13 | 1/18 (3.17) |
| G26P T28D G61K R100K A101T | 0.94 1.45 1.05 1.21 0.99 1.43 | 1/18 (3.06) |
| T28V S31E R100E S107L | 2.68 1.86 2.17 1.09 1.97 1.99 | 1/18 (3.92) |
| G26H T28D F59A G61Q | 0.58 0.59 0.02 0.29 0.43 0.54 | 0/18 |
| G26K T28N G61A R100K A101N | n.d. n.d. n.d. n.d. n.d. n.d. | 1/18 (0.66) |
| T28S G61A S63N A101T S107A | 0.15 0.53 0.03 0.28 0.23 0.12 | 0/18 |
| T28E S63D R100S A101T | -0.12 -0.09 -0.33 -0.24 -0.14 -0.40 | 0/18 |
| T28E S31E G61H R100K S107T | 0.09 -0.27 -0.28 -0.01 0.08 0.00 | 0/18 |
| T28D R56K G61A A101M | 0.06 0.08 -0.01 0.16 -0.03 0.28 | 0/18 |
| G26Y T28K S31E A101T | n.d. n.d. n.d. n.d. n.d. n.d. | 0/18 |
| T28S G61I R100W S107L | 2.32 1.82 1.25 0.99 1.79 0.64 | 0/18 |
| T28E R56K R100K S107V | 0.28 0.25 0.37 -0.18 0.22 0.31 | 0/18 |
| T28D R56K A101T S107Q | 0.14 -0.02 -0.03 -0.24 0.06 -0.01 | 0/18 |
| N30E R56Q G61I | 0.67 1.53 n.d. 1.52 n.d. n.d. | 0/18 |
| T28H S31E R100K A101T S107W | n.d. 0.74 0.32 0.31 n.d. n.d. | 0/18 |
| T28S R56K R100W | 0.15 0.55 1.78 1.12 1.00 0.76 | 1/18 (1.36) |
| T28E S31E G61I R100H | n.d. 0.22 -0.60 -0.71 -0.57 -0.30 | 0/18 |
| T28D G61L R100K A101T | 1.30 0.64 0.62 0.10 0.19 0.46 | 0/18 |
| T28N G61A R100K A101M | 1.06 1.23 0.93 1.09 0.86 1.11 | 0/18 |
| T28D F59V S63Q A101T | 0.45 -0.81 -0.63 -1.39 -0.24 -0.55 | 0/18 |
| G26S T28E S31E R100Q A101T | n.d. 2.40 1.83 2.11 n.d. 1.60 | 0/18 |
| T28S S31D S63D A101Q | 0.33 -0.32 0.04 0.14 -0.07 0.29 | 0/18 |
| S31E R56K A101T S107G | 0.82 1.43 0.36 0.94 0.66 1.27 | 0/18 |

Extract of 2 entries:

| changes | replicates, log10 nM | signal with controls |
|---|---|---|
| T28E G61S R100Q S107D | 0.98 0.50 1.09 0.86 0.64 1.13 | 1/18 (3.17) |
| T28D R56K A101T S107Q | 0.14 -0.02 -0.03 -0.24 0.06 -0.01 | 0/18 |

Empty control strains, which show no peptide, gave a signal in 1% of pairings with all heavy chain designs; the median was 2.08 and 95% of these signals were weaker than 0.84. No background was subtracted. For each scFv, signals with the empty controls are counted beside the result, with their mean in brackets.
In the paper, a design with two or fewer of six values counts as a poor binder.

Data: MIT Lincoln Laboratory AlphaSeq set, Li et al. 2023, doi:10.1038/s41467-023-39022-2, as distributed in FLAb.